These results are taken from ChEMBL document CHEMBL1158399, “Synthesis, biological evaluation and molecular modeling of oxoisoaporphine and oxoaporphine derivatives as new dual inhibitors of acetylcholinesterase/butyrylcholinesterase” (Eur J Med Chem, 2009).

Some results are limits rather than exact numbers.

A short description of the assay: Selectivity ratio of IC50 for equine serum BuChE to IC50 for electric eel AChE. Summed up:
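Modified Ellman assays with electric eel AChE and equine serum BuChE (enzyme stocks 2.0 units/mL). AChE substrate was acetylthiocholine chloride (0.01 M stock), in phosphate buffer pH 8.0 with DTNB (0.01 M stock), after 15 min inhibitor preincubation. A412 read over 1 min at 37 °C. IC50s are means ± SEM of three experiments; ratio = IC50(BuChE)/IC50(AChE).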

With `Nc1ccc2c(c1)C(=O)c1cccc3ccnc-2c13`, the Ratio IC50 was greater than 4.
